Data as given in PMC7723054.
The other results are listed elsewhere or left out.

T1: LIN28A (human?, UniProt Q9H9Z2 1-209)
T1 sequence: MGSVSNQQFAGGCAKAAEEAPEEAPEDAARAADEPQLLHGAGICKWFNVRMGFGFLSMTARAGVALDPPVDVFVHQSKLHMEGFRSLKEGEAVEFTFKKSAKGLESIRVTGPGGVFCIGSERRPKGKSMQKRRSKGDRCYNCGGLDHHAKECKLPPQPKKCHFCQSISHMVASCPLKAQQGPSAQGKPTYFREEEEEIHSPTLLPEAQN

T2: CIRBP (Homo sapiens, UniProt Q14011 1-172)
T2 sequence: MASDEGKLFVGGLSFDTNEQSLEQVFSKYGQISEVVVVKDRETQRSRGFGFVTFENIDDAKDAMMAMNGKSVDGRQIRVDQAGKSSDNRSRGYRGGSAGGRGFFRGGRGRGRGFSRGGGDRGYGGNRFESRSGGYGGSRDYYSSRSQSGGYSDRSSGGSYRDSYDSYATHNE

T3: DHX36 (Homo sapiens, UniProt Q9H2U1 1-1008)
T3 sequence: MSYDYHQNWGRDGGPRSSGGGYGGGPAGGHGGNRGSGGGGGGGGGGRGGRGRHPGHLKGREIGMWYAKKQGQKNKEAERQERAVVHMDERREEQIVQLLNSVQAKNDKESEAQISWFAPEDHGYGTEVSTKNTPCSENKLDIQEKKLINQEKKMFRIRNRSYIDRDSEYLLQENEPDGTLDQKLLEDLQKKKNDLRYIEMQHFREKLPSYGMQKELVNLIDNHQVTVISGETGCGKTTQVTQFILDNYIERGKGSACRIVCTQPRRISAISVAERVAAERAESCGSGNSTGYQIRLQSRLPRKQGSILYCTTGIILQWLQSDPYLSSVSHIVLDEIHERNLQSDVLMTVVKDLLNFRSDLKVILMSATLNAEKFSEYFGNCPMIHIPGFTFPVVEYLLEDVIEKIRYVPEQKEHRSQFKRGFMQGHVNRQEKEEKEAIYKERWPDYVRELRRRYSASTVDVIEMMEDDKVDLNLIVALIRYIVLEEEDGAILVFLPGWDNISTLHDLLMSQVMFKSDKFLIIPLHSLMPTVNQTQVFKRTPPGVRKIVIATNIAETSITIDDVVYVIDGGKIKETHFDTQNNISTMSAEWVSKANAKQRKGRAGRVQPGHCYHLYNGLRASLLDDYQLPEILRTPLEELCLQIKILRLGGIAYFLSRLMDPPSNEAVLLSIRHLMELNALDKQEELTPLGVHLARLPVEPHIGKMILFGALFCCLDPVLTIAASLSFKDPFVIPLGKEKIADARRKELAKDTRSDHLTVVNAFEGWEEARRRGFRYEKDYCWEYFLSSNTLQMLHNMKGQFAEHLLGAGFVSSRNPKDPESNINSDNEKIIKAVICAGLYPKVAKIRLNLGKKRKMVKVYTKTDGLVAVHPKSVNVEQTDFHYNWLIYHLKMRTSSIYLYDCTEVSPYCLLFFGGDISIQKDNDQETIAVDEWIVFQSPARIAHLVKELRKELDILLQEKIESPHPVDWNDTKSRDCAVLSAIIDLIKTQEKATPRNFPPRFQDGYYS

B1: hsa-mir-5682 (structured_RNA)
RNA: GGGACGGCUAAUCCAUCGGUAAAAUAAGGGUGUACGAAGUUUCAGCCUGCAGAGACGAGGCCUGUAGGCUGAAGCUUCGUGCAC
B2: hsa-mir-1208 (structured_RNA)
RNA: GGGAUGAACUCCCGCAGUCGAGUCUAUAGGUGUACGAAGUUUCAGCGGAGACGGGUCUUUCUCGCUGAAGCUUCGUGCAC
B3: hsa-mir-3670-3_3670-2_3670-1_3670-4 (structured_RNA)
RNA: GGGAGCAGUACAACGGGUUUCUAGCCUCGGUGUACGAAGUUUCAGCCCUCACCUGCUGAGAGGCUGAAGCUUCGUGCAC
B4: hsa-mir-216b (structured_RNA)
RNA: GGGAACACCUACUACUCUGGACCCCUCCGGUGUACGAAGUUUCAGCAUGUGAUGUCACUGAGGAAAUCACACGCUGAAGCUUCGUGCAC
B5: hsa-mir-208b (structured_RNA)
RNA: GGGAAGUACGAUCGAGGGCUUAAUGUCAGGUGUACGAAGUUUCAGCUUAUGUUUCUGAUCCGAAUAUAAGCUGAAGCUUCGUGCAC
B6: hsa-mir-190b (structured_RNA)
RNA: GGGAAAUAAGAUACUACGGGAUCGUCCGGGUGUACGAAGUUUCAGCGGUUGUUUAAUUAGGAACCAACUGCUGAAGCUUCGUGCAC
B7: hsa-mir-211 (structured_RNA)
RNA: GGGACAAUGCAAGCGCACAUAGAAGCUUGGUGUACGAAGUUUCAGCUCGCCUAGGGCUCUGAGCAGGGCAGCUGAAGCUUCGUGCAC
B8: hsa-mir-374b (structured_RNA)
RNA: GGGAAACCCUAGAUUAUGACGCCAAGUCGGUGUACGAAGUUUCAGCUAAGUGUCCUAGCACUUAGCUGAAGCUUCGUGCAC
B9: hsa-mir-3912 (structured_RNA)
RNA: GGGAAACUUUACUCGGGAGACAUGACCCGGUGUACGAAGUUUCAGCGUUAGUUGUGGACACAUACUAACGCUGAAGCUUCGUGCAC
B10: hsa-mir-6737 (structured_RNA)
RNA: GGGAAAAUGGACAUCUAGGCAUCGCGUAGGUGUACGAAGUUUCAGCUGGAGGGGGUUUGUUUGCUUAUUCCCCUCUGCUGAAGCUUCGUGCAC
B11: hsa-mir-3168 (structured_RNA)
RNA: GGGAAGAGCUAUCGGUCGGCUUAACUGAGGUGUACGAAGUUUCAGCAGACAGCCUGAGUUGGAGGCUCAUCUUCACUUCUUGCUGUGUGCUGAAGCUUCGUGCAC
B12: hsa-mir-488 (structured_RNA)
RNA: GGGAAGGUCUAGAAACAUGAGUGCGAGCGGUGUACGAAGUUUCAGCUCAAACAAGUUUCCAAAUUGUUUGAGCUGAAGCUUCGUGCAC
B13: hsa-mir-378d-1 (structured_RNA)
RNA: GGGAGGGAACCCGCAAACUGAUUAGCUCGGUGUACGAAGUUUCAGCUUGUUGUUAUUACUGCUGAAGCUUCGUGCAC
B14: hsa-mir-2392 (structured_RNA)
RNA: GGGAGAGGGUUCAAACGUUGAAUAACACGGUGUACGAAGUUUCAGCUCCUCAGACCAGGUGGCUCCCGAGCCACCCCAGGCUGUAGGGCUGAAGCUUCGUGCAC
B15: hsa-mir-548au (structured_RNA)
RNA: GGGAAGCAACGACUCGGCGAUGAUCUACGGUGUACGAAGUUUCAGCGCGGUUUUUGCUAUUGGUUUUAAUGGCGCUGAAGCUUCGUGCAC
B16: hsa-mir-1539 (structured_RNA)
RNA: GGGAACUACAAAUCAAGCCAAGCGUGGAGGUGUACGAAGUUUCAGCAGCGCGAAAGUGCUGAAGCUUCGUGCAC
B17: hsa-mir-563 (structured_RNA)
RNA: GGGAAGUUGUGGAUUGGGCGUGCCCUAUGGUGUACGAAGUUUCAGCCUCUGAUGUAAUUAGGUGCUGAAGCUUCGUGCAC
B18: hsa-mir-885 (structured_RNA)
RNA: GGGAGGAUACGGCACCGAGAGCGAUUUGGGUGUACGAAGUUUCAGCGCCUCUUCUCCAUGAGAGGCGCUGAAGCUUCGUGCAC
B19: hsa-mir-3621 (structured_RNA)
RNA: GGGACCACUAUGAGGUGCAGCAUUUAAUGGUGUACGAAGUUUCAGCCAGGGCGGUGCGGCAGCCGCCACCGCUGAAGCUUCGUGCAC
B20: hsa-mir-5681a (structured_RNA)
RNA: GGGAAGAGUAUCAGCGCCCAAGUCAUUUGGUGUACGAAGUUUCAGCUUCUAGUCCCUAUUAGACUAGAAGCUGAAGCUUCGUGCAC
B21: hsa-mir-1237 (structured_RNA)
RNA: GGGAACUGGGAACUGCACGGUAUUAUUAGGUGUACGAAGUUUCAGCAGCGCGGCGACCGUAACUCCUGCUGAAGCUUCGUGCAC
B22: hsa-mir-7855 (structured_RNA)
RNA: GGGAAGAUGUUAGUUUGACAACGGAAUCGGUGUACGAAGUUUCAGCUCGGCACUAUUGUGACUGUGCUGAAGCUUCGUGCAC
B23: hsa-mir-3591 (structured_RNA)
RNA: GGGACCGGAGCCGCAGUUCUGUAGAAAGGGUGUACGAAGUUUCAGCGUUUGAUAGUUUAGACACAAACGCUGAAGCUUCGUGCAC
B24: hsa-mir-549a (structured_RNA)
RNA: GGGAAGCUAAUCUCUGUCGCAGCCGCUAGGUGUACGAAGUUUCAGCGUCACUGUCUCAAAUCAGUGACGCUGAAGCUUCGUGCAC
B25: hsa-mir-634 (structured_RNA)
RNA: GGGAGAAACAGGUAAAUAAGCCUUUUGUGGUGUACGAAGUUUCAGCGGUGUCAUGCCCCAAGAUAACCGCUGAAGCUUCGUGCAC
B26: hsa-mir-8057 (structured_RNA)
RNA: GGGAAUAGCUGAAAAGUGGGAUUCCUUCGGUGUACGAAGUUUCAGCGGACUUGCGGUUCAGCUGAAGCUUCGUGCAC

Biological target: T1, LIN28A
Assay: FOREST: bead pull-down of RNA structure library v1, barcode microarray; U1A/LIN28A: 20 mM HEPES pH 7.5, 80 mM KCl, 20 mM NaCl, 10% glycerol, 2 mM DTT, 0.1 ug/uL BSA, 4 C; BG4/CIRBP/DHX36: 10 mM Tris-HCl pH 7.5, 100 mM KCl (or LiCl),; high values mean tight binding

Binder | binding signal [z-score]
B1 | -0.48
B2 | -0.449
B3 | -0.493
B4 | -0.497
B5 | -0.469
B6 | -0.483
B7 | -0.478
B8 | -0.454
B9 | -0.452
B10 | -0.484
B11 | -0.449
B12 | -0.451
B13 | -0.474
B14 | -0.494
B15 | -0.449
B16 | -0.479
B17 | -0.457
B18 | -0.467
B19 | -0.456
B20 | -0.469
B21 | -0.496
B22 | -0.454
B23 | -0.472
B24 | -0.501
B25 | -0.465
B26 | -0.453

Biological target: T2, CIRBP
Assay: as above

Binder | binding signal [z-score]
B1 | -0.498
B2 | -0.742
B3 | -0.648
B4 | -0.549
B5 | 0.522
B6 | 0.0367
B7 | -0.67
B8 | 0.911
B9 | -1.02
B10 | 0.189
B11 | 0.457
B12 | 1.07
B13 | -0.69
B14 | -0.755
B15 | -1.19
B16 | 0.834
B17 | 1.09
B18 | -0.431
B19 | 0.448
B20 | -0.476
B21 | 0.272
B22 | -0.951
B23 | 0.17
B24 | 0.258
B25 | -0.176
B26 | -1.2

Biological target: T3, DHX36
Assay: as above

Binder | binding signal [z-score]
B1 | 0.537
B2 | 0.321
B3 | -0.0511
B4 | -0.565
B5 | -0.0601
B6 | -0.863
B7 | -0.507
B8 | -0.867
B9 | 0.729
B10 | 0.724
B11 | -0.558
B12 | 0.541
B13 | 0.0706
B14 | -0.243
B15 | -0.71
B16 | -1.44
B17 | -0.428
B18 | -0.306
B19 | -0.358
B20 | -0.0327
B21 | -0.504
B22 | -1.29
B23 | -0.202
B24 | -0.559
B25 | -0.286
B26 | -0.991
